{
  "sequences": {"note": "Chains of the proteins cited; added tags and fusions are not shown. Residues count along the entry.", "UniProt P16473, 21-764": "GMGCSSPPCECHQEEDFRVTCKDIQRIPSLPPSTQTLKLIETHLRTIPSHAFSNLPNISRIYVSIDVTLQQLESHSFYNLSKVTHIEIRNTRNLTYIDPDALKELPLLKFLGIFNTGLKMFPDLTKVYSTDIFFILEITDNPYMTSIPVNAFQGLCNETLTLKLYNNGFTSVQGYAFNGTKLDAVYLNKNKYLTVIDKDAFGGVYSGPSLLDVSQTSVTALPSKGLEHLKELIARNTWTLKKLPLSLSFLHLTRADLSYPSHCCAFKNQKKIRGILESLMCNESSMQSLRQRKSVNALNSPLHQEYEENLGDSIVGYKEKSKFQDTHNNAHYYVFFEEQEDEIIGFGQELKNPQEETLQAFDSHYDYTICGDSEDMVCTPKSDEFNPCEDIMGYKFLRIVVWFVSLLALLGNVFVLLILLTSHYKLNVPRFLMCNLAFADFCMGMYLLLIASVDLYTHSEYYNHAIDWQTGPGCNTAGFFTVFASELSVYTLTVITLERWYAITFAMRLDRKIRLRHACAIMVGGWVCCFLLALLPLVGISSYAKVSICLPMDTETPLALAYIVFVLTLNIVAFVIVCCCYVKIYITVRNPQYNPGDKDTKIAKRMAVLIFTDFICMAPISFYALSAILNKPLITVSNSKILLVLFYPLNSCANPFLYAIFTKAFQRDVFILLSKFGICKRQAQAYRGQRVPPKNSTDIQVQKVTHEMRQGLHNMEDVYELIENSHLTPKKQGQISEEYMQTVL"},
  "source": "patent US9333241B2",
  "about": "“Thyroid-stimulating hormone receptor polypeptide agonist glycoforms to treat metabolic syndrome” (LipoLytics Therapeutics, LLC, priority 2005, dated 2016)",
  "origin": "cited, not measured here",
  "key": {"[1]": {"details": "relative to sialylated TSH"}, "[2]": {"system": "rodent models of the metabolic syndrome", "details": "recombinant glycoproteins produced in CHO cells"}, "thyroid TSHR": {"biological_target": "thyroid TSHR (Homo sapiens, UniProt P16473)", "details": "relative to non-sialylated glycoforms"}},
  "data": [
    {"substance": "Asialylated TSH: homogenous, desialylated TSH prepared from rhTSH with neuraminidase", "values": [
      {"measurement": "clearance from serum, faster than sialylated TSH", "setting": "[1]", "value": "10-100 fold"}
    ]},
    {"substance": "TSH: thyroid-stimulating hormone produced by recombinant DNA methods in CHO cells", "values": [
      {"measurement": "effect of treatment in rodents", "setting": "[2]", "value": "improved glucose and lipid profiles and in reversed liver steatosis"}
    ]},
    {"substance": "rhTSH: Recombinant human TSH (Thyrogen®, Genzyme Corporation)", "values": [
      {"measurement": "mean apparent elimination half-life", "setting": "humans", "value": "25 ± 10", "unit": "h"},
      {"measurement": "metabolic clearance rate (MCR) compared with human pituitary-derived TSH", "setting": "humans", "value": "much lower"},
      {"measurement": "time serum concentrations are significantly elevated after injection", "setting": "single injection of approximately 30 μg/kg in human subjects", "value": "up to 24 hours"}
    ]},
    {"substance": "sialylated forms of TSH: TSH glycoforms having terminal sialic acid", "values": [
      {"measurement": "intrinsic activity (in vitro activity), lower than non-sialylated glycoforms", "setting": "thyroid TSHR", "value": "4-20 fold"}
    ]}
  ]
}
